The values below come from BindingDB's records for PubMed 8632342 (Eli Lilly, 1996).

By UniProt entry, the sequences of proteins in these tests, tags left out.
UniProt P30994, whole entry: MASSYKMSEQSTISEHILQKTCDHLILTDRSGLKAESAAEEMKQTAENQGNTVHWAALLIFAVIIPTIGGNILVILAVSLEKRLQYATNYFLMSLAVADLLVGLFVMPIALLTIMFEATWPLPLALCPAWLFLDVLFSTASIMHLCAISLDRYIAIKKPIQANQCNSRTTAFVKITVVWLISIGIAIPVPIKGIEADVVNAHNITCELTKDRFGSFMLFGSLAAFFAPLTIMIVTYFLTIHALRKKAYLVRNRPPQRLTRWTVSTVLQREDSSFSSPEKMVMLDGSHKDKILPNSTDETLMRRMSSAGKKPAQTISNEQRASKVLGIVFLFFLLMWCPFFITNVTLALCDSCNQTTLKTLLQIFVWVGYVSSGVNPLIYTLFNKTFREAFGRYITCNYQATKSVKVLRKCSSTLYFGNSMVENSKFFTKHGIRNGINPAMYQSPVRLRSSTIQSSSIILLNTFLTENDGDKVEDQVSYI

For this assay, the target named is 5-hydroxytryptamine receptor 2B (Rattus norvegicus, UniProt P30994).

In turn, `Cc1nc2sccn2c(=O)c1CCN1CCC(=C(c2ccc(F)cc2)c2ccc(F)cc2)CC1` displayed a Ki of 5.18 nM.
